Measurements: ChEMBL document CHEMBL2040834, “Synthesis, crystal structures and electronic properties of isomers of chloro-pyridinylvinyl-1H-indoles” (Eur J Med Chem, 2012)
pIC50, pKi: −log10 of the molar value.

Amino acid sequences for entries named in this document (tags omitted). A change or cut given only in a name is not applied to a line headed by its entry.
UniProt P48775: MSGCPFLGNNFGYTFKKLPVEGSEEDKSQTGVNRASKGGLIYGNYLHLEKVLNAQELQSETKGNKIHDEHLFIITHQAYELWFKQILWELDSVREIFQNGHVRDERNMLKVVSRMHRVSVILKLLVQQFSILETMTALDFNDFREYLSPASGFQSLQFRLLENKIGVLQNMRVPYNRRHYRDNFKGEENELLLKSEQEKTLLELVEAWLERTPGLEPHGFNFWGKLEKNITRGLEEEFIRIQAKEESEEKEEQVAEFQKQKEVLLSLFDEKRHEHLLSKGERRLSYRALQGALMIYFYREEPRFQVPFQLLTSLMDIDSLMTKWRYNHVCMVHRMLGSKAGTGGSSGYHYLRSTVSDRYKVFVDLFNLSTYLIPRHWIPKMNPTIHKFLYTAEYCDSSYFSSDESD

Tests used:
[1] = biological target: T1, Tryptophan 2,3-dioxygenase (Homo sapiens, UniProt P48775); experiment: Inhibition of human purified TDO assessed as formation of kynurenine from N-formylkynurenine preincubated for 10 mins measured after 5 to 20 mins by discontinuous colorimetric method
Summary of the method: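 Purified recombinant hTDO (E. coli), 1.3 μM stock, added to 50 mM Tris pH 8.0 with 20 mM ascorbate, catalase, 5 μM hemin, 10 μM methylene blue, 100 μM L-Trp and inhibitor at 0–100 μM in 5% DMSO final. Mix pre-incubated 10 min at 37 °C before enzyme. Stopped at 5–20 min with TCA, then 65 °C for 15 min. Kynurenine read at 480 nm with Ehrlich's reagent. Duplicates averaged.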

[2] = biological target: T1, Tryptophan 2,3-dioxygenase; experiment: Inhibition of liver TDO

Fc1ccc2c(/C=C/c3cccnc3)c[nH]c2c1
pIC50 [1]: 5.89 | pKi [2]: 7.52
